Data as given in patent US20110117106A1, “USES OF CALPAIN INHIBITORS TO INHIBIT INFLAMMATION” (priority 2008, published 2011).

How the values were obtained:
calpain = test: Calpain assay with cell permeable fluorogenic calpain substrate (Boc-LM-CMAC); format: cell-based, human; settings: 1HAEo- cells and SAEC stimulated with heat killed PAO1 or P3C
Protocol: Confluent monolayers of 1HAEo-cells or SAECs were loaded with 20 μM t-BOC-L-leucine-L-methionine amide (Boc-LM-CMAC), a calpain specific membrane permeable fluorogenic substrate. Cells were stimulated with heat killed PAO1 (10^7 CFU) or P3C (15 μg/ml) and fluorescence was quantified at ex 360 nm and em 465 nm with a Spectrafluor Plus fluorimeter (Tecan).

[1] = tested on: E-cadherin cleavage by calpain (100 kDa E-cadherin cleavage product); test: E-cadherin cleavage: immunoblot in 1HAEo- cells; format: cell-based, human; settings: cells stimulated with heat-killed PAO1 or P3C, 4 hr
Protocol: 1HAEo-cells or SAECs were grown to confluence on 10 cm plates, stimulated with heat killed PAO1 (10^7 CFU) or P3C (15 μg/ml), and whole cell lysates made using 60 mM n-octyl-β-D-glucopyranoside (OGP) in TBS (0.1 M Tris-HCl and 0.15 M NaCl, pH 7.8) containing Complete Mini protease inhibitor tablets (Roche), 1 mM sodium orthovanadate and 100 mM sodium fluoride. Monoclonal anti-E-cadherin (BD Pharmingen), polyclonal anti-pan calpain (Santa Cruz Biotechnologies) or monoclonal anti-occludin (Invitrogen/Zymed) antibodies were used for immunoprecipitations followed by the addition of Protein G Agarose beads (Invitrogen) (Chun and Prince, 2006). Immunodetection was performed using monoclonal anti-E-cadherin, polyclonal anti-occludin, anti-pan calpain, anti-calpain 1 and anti-calpain 2 antibodies (Santa Cruz Biotechnology).

In the case of `CCCC[C@@H](C=O)NC(=O)[C@H](CC(C)C)NC(=O)OCc1ccccc1` [calpeptin, Z-Leu-Nle-CHO], the “Calpain activity (accumulation of fluorogenic calpain substrate) in presence of inhibitor” value (calpain) is reported as “inhibited” and the “Generation of 100 kDa E-cadherin cleavage product in presence of inhibitor” value [1] is reported as “substantially decreased”.
